## Yeast mating assay 2: variants of the scFv Ab-95

Source: Engelhart et al. 2022 (doi:10.1038/s41597-022-01779-4), MIT Lincoln Laboratory and A-Alpha Bio; data file from the FLAb repository.

Antigen: PDVDLGDISGINAS, a 14-residue peptide of the SARS-CoV-2 spike HR2 region.

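The starting antibody came from a phage panning campaign against this peptide. Library AAYL52 holds single substitutions and randomly drawn double and triple substitutions in the CDRs. Affinity was read by AlphaSeq, a pooled yeast mating assay with surface-displayed partners. Pairs that bind mate more often; barcode pairs of the diploids are counted by sequencing. Read counts were normalised to the haploid input and turned into Kd by a linear fit to BCL2-family pairs of known affinity, for each replicate. There are three technical replicates.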

Parent: Ab-95, a human scFv built as VH, the linker GGGGSGGGGSGGGGS, VL. Only the CDRs of the light chain vary.
VH: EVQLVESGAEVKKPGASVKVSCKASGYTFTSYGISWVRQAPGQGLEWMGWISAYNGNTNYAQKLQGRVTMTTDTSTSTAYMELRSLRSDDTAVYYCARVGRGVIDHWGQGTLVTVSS
VL: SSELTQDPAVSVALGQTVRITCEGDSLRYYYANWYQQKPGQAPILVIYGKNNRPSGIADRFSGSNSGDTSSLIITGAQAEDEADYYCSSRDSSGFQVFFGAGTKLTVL

Each variant is given by its three light chain CDRs, as the data file delimits them; those of the parent are EGDSLRYYYAN, GKNNRPS, SSRDSSGFQVF. Every variant below is changed at S26 of the VL (sequential numbering). Each Kd is an estimate from the mating assay, the geometric mean of the replicates in which the pair was seen; lower is stronger. An entry "no signal" has no value in the source: the pair was not observed among the diploids in any replicate. This suggests poor binding but is not conclusive. Parent in this assay: reference entry 200 nM, copy in this library 180 nM.

With EGDFLRYYYAN, GRNNRPC, SSRDSSGFQVF the result was 44 µM (1 of 3 replicates; controls 5 of 9).
With EGDGVRYMYAN, GKNNRPS, SSRDSSGFQVF the result was 4.6 µM (3 of 3 replicates; controls 3 of 9).
With EGDWLRYYYAN, GMNNRPS, SSRDSSGMQVF the result was 11 µM (3 of 3 replicates; controls 6 of 9).
With YGDVLRYYYAN, GKNNRPS, SSRDSSGFEVF the result was 17 µM (2 of 3 replicates; controls 5 of 9).
With EGDMLRYYYAN, GKNKRPF, SSRDSSGFQVF the result was 6.0 µM (3 of 3 replicates; controls 3 of 9).
With EGDFLRYAYAC, GKNNRPS, SSRDSSGFQVF the result was 9.2 µM (3 of 3 replicates; controls 3 of 9).
With ENDVLRYYYAN, GKNNRPS, SSRDSSGFQVW the result was 4.1 µM (2 of 3 replicates; controls 2 of 9).
With AGDDLRYYYAN, GKNFRPS, SSRDSSGFQVF the result was 250 nM (3 of 3 replicates; controls 1 of 9).
With IGDHLRYYYAN, GKNRRPS, SSRDSSGFQVF the result was 1.7 µM (2 of 3 replicates; controls 1 of 9).
With EGIKLRYYYAN, GANNRPS, SSRDSSGFQVF the result was no signal (0 of 3 replicates; controls 1 of 9).
With EGDYLRYYYEN, GKNNRPS, SSRDSSGFQVC the result was 100 µM (1 of 3 replicates; controls 1 of 9).
With EGDTLRYYYAN, GKFNRPS, SSRDSEGFQVF the result was 14 µM (1 of 3 replicates; controls 3 of 9).
With EGDWLRYYYAN, GKNNRPS, SSRWSSEFQVF the result was no signal (0 of 3 replicates; controls 1 of 9).
With GGDCLRYYYAN, GKNNRPS, SSFDSSGFQVF the result was 11 µM (2 of 3 replicates; controls 5 of 9).
With EGDTLRYYYHN, GKNNRPY, SSRDSSGFQVF the result was 8.9 µM (2 of 3 replicates; controls 3 of 9).
With EGDMLRYYYAN, GKNFRPS, SSRDSSGFQVF the result was 2.6 µM (3 of 3 replicates; controls 3 of 9).
With EGDCLRYYYAN, GKNNRPS, SSRDSSGFQFH the result was 93 nM (3 of 3 replicates; controls 3 of 9).
With EGDLLRYYYAN, GKNNRPS, VSRDCSGFQVF the result was 1.3 µM (1 of 3 replicates; controls 1 of 9).
With EEDMLRYYYAN, GKNNRPS, SSRDMSGFQVF the result was 14 µM (1 of 3 replicates; controls 4 of 9).
With EGDCLRYYYAN, GKNNRPL, SSRDSSGDQVF the result was 56 µM (1 of 3 replicates; controls 3 of 9).
With EGDLLRYYYAN, GKENRPS, SSRDSGGFQVF the result was 12 µM (2 of 3 replicates; controls 2 of 9).
With EGDRLRYYYAN, GTNSRPS, SSRDSSGFQVF the result was 2.6 µM (3 of 3 replicates; controls 4 of 9).
With EPDRLRYKYAN, GKNNRPS, SSRDSSGFQVF the result was 12 µM (2 of 3 replicates; controls 4 of 9).
With EGDVLRNYYAN, GKNTRPS, SSRDSSGFQVF the result was 160 nM (3 of 3 replicates; controls 2 of 9).
With EGDCLRYYYAA, GKNNRPS, SSRDESGFQVF the result was 1.1 µM (1 of 3 replicates; controls 4 of 9).
With EGDELRYYYAN, PKTNRPS, SSRDSSGFQVF the result was 1.6 µM (3 of 3 replicates; controls 3 of 9).
With EGDPLRYYYAN, GKNNVPS, SSPDSSGFQVF the result was 46 µM (3 of 3 replicates; controls 2 of 9).
With EGDALRYYYAN, GKNNRPS, SSRDDPGFQVF the result was 310 nM (3 of 3 replicates; controls 4 of 9).
With EKDILRYYYAN, GKNNRPS, SSRDSSVFQVF the result was 7.0 µM (2 of 3 replicates; controls 2 of 9).
With EGDYLRYHYAN, GKNNFPS, SSRDSSGFQVF the result was 4.8 µM (3 of 3 replicates; controls 2 of 9).
With EGQHLRYYYAN, GKNNRPS, SIRDSSGFQVF the result was 1.5 µM (3 of 3 replicates; controls 1 of 9).
With EGDHLRYAYAN, QKNNRPS, SSRDSSGFQVF the result was 33 nM (3 of 3 replicates; controls 5 of 9).
With EGDVERYYYAN, GGNNRPS, SSRDSSGFQVF the result was 7.3 µM (3 of 3 replicates; controls 0 of 9).
With EGDYLRYYYAN, SKNNRPS, SSRDSFGFQVF the result was no signal (0 of 3 replicates; controls 2 of 9).
With EGDLLRYYQAN, GENNRPS, SSRDSSGFQVF the result was 7.6 µM (3 of 3 replicates; controls 1 of 9).
With EGDHLRYYYAN, GKNNRDS, SSRDSRGFQVF the result was no signal (0 of 3 replicates; controls 3 of 9).
With EGDFLRYYYAN, GCNNRPS, SSRDSSGFSVF the result was 20 µM (1 of 3 replicates; controls 3 of 9).
With EGDMLRYYYAN, GKNNRPS, SSSDWSGFQVF the result was 1.6 µM (3 of 3 replicates; controls 0 of 9).
With EGDILRYYYNN, GKNNRPS, SLRDSSGFQVF the result was no signal (0 of 3 replicates; controls 0 of 9).
With EGDMLRYYYAE, GKNNRPG, SSRDSSGFQVF the result was 23 µM (3 of 3 replicates; controls 2 of 9).
With EGDFLRYYYAN, GKNNRPS, SSRDSADFQVF the result was 4.2 µM (3 of 3 replicates; controls 3 of 9).
With EGDQLRYYYAN, GKNNRPS, YSRDSSGYQVF the result was 74 µM (1 of 3 replicates; controls 1 of 9).

3 of these entries, quoted again:

{"CDR-L1": "GGDCLRYYYAN", "CDR-L2": "GKNNRPS", "CDR-L3": "SSFDSSGFQVF", "Kd": "11 µM", "detected": "2 of 3", "empty controls": "5 of 9"}
{"CDR-L1": "EGDMLRYYYAN", "CDR-L2": "GKNFRPS", "CDR-L3": "SSRDSSGFQVF", "Kd": "2.6 µM", "detected": "3 of 3", "empty controls": "3 of 9"}
{"CDR-L1": "EGDLLRYYYAN", "CDR-L2": "GKENRPS", "CDR-L3": "SSRDSGGFQVF", "Kd": "12 µM", "detected": "2 of 3", "empty controls": "2 of 9"}

Background: pairings of library AAYL52 with three empty control strains gave a value in 28% of cases (median 8.2 µM, 5th percentile 800 nM). Values in that range, when seen in few replicates, are hard to tell from nonspecific mating. Also given: how often the same scFv was detected with the empty control strains.